Assay results from patent publication US9073974B2, “RGD-containing cyclic peptides” (The Regents of the University of California, priority 2009, dated 2015).

By UniProt entry, the sequences of proteins in these tests, tags left out. Residues count along the entry.
UniProt P05106, 27-788: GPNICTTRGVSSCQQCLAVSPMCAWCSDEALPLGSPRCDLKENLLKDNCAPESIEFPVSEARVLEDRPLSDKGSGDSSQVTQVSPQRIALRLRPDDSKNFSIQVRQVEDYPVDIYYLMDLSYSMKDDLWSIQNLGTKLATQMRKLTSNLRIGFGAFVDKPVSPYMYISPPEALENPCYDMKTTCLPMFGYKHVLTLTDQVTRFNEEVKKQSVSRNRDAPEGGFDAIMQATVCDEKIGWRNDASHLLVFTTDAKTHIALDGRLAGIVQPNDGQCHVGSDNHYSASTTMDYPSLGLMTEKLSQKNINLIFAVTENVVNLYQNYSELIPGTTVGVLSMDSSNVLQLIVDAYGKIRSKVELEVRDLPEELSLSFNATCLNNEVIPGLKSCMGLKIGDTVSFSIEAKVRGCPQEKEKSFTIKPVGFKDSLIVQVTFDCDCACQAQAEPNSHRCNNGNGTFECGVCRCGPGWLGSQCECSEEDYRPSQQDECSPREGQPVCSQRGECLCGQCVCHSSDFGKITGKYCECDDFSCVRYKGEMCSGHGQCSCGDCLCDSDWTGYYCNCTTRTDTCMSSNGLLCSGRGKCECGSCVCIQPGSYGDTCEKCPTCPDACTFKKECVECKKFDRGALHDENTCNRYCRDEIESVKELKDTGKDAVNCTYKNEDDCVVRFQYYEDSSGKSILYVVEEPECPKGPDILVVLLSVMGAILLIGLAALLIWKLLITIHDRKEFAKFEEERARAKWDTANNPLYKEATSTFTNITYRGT
UniProt P06756, 891-1048 partner limits assumed: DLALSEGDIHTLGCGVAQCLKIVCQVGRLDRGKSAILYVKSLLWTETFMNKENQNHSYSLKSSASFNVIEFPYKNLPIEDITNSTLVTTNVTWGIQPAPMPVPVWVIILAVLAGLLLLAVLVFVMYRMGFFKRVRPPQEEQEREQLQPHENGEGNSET
UniProt P06756, 31-889 limits assumed: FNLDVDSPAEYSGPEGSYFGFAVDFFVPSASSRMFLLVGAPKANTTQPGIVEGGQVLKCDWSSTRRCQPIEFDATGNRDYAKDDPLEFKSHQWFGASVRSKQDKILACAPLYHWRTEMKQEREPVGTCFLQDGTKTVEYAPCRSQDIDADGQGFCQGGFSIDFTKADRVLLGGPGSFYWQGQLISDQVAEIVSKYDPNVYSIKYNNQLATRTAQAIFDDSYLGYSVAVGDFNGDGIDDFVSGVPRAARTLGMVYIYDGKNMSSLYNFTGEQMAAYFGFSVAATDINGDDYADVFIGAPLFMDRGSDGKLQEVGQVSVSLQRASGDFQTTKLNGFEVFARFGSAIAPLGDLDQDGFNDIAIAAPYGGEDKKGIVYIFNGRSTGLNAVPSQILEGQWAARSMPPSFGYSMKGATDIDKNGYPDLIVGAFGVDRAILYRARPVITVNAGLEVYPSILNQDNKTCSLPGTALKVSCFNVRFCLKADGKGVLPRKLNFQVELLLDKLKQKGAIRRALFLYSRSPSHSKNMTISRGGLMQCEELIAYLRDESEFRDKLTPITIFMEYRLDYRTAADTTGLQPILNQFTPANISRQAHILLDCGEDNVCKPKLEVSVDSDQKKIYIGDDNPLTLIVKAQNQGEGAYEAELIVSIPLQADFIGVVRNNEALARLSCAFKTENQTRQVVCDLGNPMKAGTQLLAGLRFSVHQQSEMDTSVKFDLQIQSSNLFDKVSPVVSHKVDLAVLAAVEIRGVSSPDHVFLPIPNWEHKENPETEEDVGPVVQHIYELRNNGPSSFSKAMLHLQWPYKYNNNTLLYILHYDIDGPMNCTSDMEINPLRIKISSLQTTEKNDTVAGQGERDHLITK

Experiments:
αvβ3 integrin [1] = biological target: T1, αvβ3 integrin (Homo sapiens, UniProt P05106+P06756); assay: Inhibition of FITC-Echistatin binding to αvβ3-K562 cells (flow cytometry); parameters: expressed in transfected cells; host or cells: K562 (gift of Dr. Yoshikazu Takada, UC Davis); details: read-out: IC50 (μM) Inhibit FITC-Echistatin binding with αvβ3-K562; biotinylated peptides
Method: (§1) The samples were analyzed with Coulter XL-MCL flow cytometry. The histogram and mean fluorescence intensity (MFI) were determined. The apparent Kd, IC50 were calculated using Graph Prism software (≦www.graphpad.com≧).

αvβ3 integrin [2] = biological target: T1, αvβ3 integrin; assay: Inhibition of biotinylated LXW7 binding to αvβ3-K562 cells (flow cytometry); parameters: expressed in transfected cells; host or cells: K562 (gift of Dr. Yoshikazu Takada, UC Davis); details: LXW9-92: inhibiting the binding of biotinylated LXW7 against αvβ3-K562 cells; class symbols
Method: The apparent IC50 were calculated using Graph Prism software (≦www.graphpad.com≧).
as §1

Substance	IC50 (αvβ3 integrin [1]) [µM]	IC50 (αvβ3 integrin [2]) [µM]
Biotinylated Cyclo(RGDyK) [cyclo (RGDyK)-Bio, reference compound]	1.35 ± 0.09	–
cGRGD-NGlu-Ppca-c [LXW72]	–	> 10
